{"source": "BindingDB's records for doi:10.1021/jm900135r", "about": "(Washington University, 2009)", "biological_target": "T1, Caspase-6 (Homo sapiens, UniProt P55212)", "T1 sequence (P55212 whole entry)": "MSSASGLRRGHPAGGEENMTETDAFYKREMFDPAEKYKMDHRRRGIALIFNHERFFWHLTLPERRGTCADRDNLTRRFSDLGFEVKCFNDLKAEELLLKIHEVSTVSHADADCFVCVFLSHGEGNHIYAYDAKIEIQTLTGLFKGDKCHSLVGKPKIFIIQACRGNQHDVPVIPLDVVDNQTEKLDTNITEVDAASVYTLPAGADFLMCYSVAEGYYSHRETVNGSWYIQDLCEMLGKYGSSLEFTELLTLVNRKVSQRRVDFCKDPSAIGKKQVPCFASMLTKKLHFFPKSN", "assay": "Enzyme Inhibition Assay", "experimental": "The caspase enzymatic activity was determined by measuring the accumulation of a fluorogenic product. All assays were prepared in 96-well format. Recombinant caspase enzyme was first assayed to determine the optimal concentration for each experiment. Peptide inhibitors with known IC50 values were tested together with the compounds as a control for each caspase assay. After incubation, Amount of AMC released was determined by using a Victor microplate fluorometer (Perkin Elmer Life Sciences, Boston, MA) at excitation and emission wavelengths 355 nm and 460 nm, respectively. Compounds were tested in duplicate and IC50 curves were calculated for all inhibitors assayed. Final IC50 values were the average of 3 independent experiments."}
{"smiles": "CCC(C)[C@H](NC(=O)[C@H](CCC(=O)O)NC(=O)[C@@H](NC(C)=O)C(C)C)C(=O)N[C@H](C=O)CC(=O)O", "note": "(stereo partly drawn) [(4S)-4-{[(1S)-1-{[(2S)-1-carboxy-3-oxopropan-2-yl]carbamoyl}-2-methylbutyl]carbamoyl}-4-[(2S)-2-acetamido-3-methylbutanamido]butanoic acid]", "values": [{"measurement": "IC50", "result": 8, "unit": "nM"}]}
